Results as given in patent US12187709B2 (Genentech, Inc., priority 2021, dated 2025).

The chains behind the UniProt entries cited, without tags or fusion partners. Residues count along the entry.
UniProt Q13191, 40-426 limits assumed: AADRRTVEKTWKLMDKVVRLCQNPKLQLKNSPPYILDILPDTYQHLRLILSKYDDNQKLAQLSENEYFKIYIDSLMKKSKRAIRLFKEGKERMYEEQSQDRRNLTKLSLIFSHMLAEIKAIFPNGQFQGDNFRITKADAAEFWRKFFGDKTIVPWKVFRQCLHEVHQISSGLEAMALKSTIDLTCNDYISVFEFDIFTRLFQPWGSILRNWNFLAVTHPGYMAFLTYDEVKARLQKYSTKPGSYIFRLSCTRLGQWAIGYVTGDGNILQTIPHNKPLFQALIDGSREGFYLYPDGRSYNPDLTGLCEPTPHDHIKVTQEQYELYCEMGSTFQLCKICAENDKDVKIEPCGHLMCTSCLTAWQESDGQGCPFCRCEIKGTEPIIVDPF
UniProt P22681, 47-435 limits assumed: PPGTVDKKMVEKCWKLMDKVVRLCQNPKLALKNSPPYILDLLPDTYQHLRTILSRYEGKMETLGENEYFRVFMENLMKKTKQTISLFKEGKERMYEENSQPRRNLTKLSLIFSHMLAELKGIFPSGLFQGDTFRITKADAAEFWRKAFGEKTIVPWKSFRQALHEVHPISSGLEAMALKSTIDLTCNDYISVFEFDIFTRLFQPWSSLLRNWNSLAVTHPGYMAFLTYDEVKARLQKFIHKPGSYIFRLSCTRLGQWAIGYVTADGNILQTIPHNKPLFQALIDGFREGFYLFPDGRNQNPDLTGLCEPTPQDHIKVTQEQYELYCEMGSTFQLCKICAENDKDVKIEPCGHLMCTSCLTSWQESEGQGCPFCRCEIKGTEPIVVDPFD

How the values were obtained:
[1] = target: Human Cbl-b (residues 40-426) (Homo sapiens (Human), UniProt Q13191); assay: Cbl-b SPR assay; conditions: C-cbl SPR Kd vs Cbl-b SPR Kd
[2] = target: c-Cbl (Homo sapiens (Human), UniProt P22681); assay: C-Cbl LCK Ub TR-FRET assay (C-cbl Lck HTRF); conditions: read-out: C-cbl Lck HTRF IC50
[3] = target: c-Cbl (residues 47-435) (Homo sapiens (Human), UniProt P22681); assay: c-Cbl SPR assay; conditions: read-out: C-cbl SPR Kd, 20° C.
[4] = target: Cbl-b (Homo sapiens (Human), UniProt Q13191); assay: Cbl-b LCK Ub TR-FRET assay (Cbl-b Lck HTRF); conditions: for fold-selectivity (Cbl-b over C-cbl): ratio C-cbl Lck HTRF IC50 / Cbl-b Lck HTRF IC50

Fold of selectivity [1] [×] | IC50 [2] [nM] | Kd [3] [nM] | fold-selectivity (Cbl-b over C-cbl) [4] | IC50 ([4]; read-out: Cbl-b Lck HTRF IC50, Cbl-b LCK Ub TR-FRET) [nM] | Compound
3.5 | 4.8 | 4.6 | 0.8 |  | Cn1cnnc1C(c1cccc(N2Cc3c(cc(CNC4(C)CCC4)cc3C(F)(F)F)C2=O)c1)C1CC(OC(F)(F)F)C1 (single isomer, unassigned)
 | 8300 |  | 2.9 | 2700 | Cn1cnnc1[C@H](c1cc(F)cc(N2Cc3c(cc(CNC4(C)CCC4)cc3C(F)(F)F)C2=O)c1)C1COC1 (single isomer, unassigned)
